Source: patent US12391679B2, “Benzamide-substituted bicyclic imidazo- and pyrazolo-fused -pyridine, -pyrimide, and -pyridazine compounds for treatment of inflammatory diseases” (ONCO3R Therapeutics BV, priority 2019, dated 2025)

Tested on: LPS triggered IL-10 secretion in monocytes
Test: Monocytes assay: LPS-triggered IL-10 (ELISA)
Conditions: LPS-triggered IL-10 induction, median maximal fold change vs LPS only

For `COc1cc(-c2cnn3cc(C(C)(C)C#N)ccc23)cc(OC(F)F)c1C(=O)N[C@@H]1C[C@H]1F` (relative stereo), the “IL-10 FCmax median” value was “+ (+ ≤1.5)”.
